Measurements taken from patent US11491146B2, “Therapeutic methods and combinations” (priority 2017, dated 2022).
Like-named read-outs stand apart in the source and are kept apart here.

How the values were obtained:
[1] = molecular target: VIM-2 (Pseudomonas aeruginosa, UniProt Q9K2N0); assay: Dose response enzymatic inhibition assay and inhibition constant against VIM2; type: biochemical, P. aeruginosa
Procedure: For our biochemical assay, the blavmugene, from a clinical strain of P. aeruginosa, was expressed using the pET24a (+) vector [20]. The pET24a-VIM-2 plasmid was transformed into competent BL21 (DE3) E. coli cells. The cells were plated onto an LB-agar plate with kanamycin (25 μg/mL) and incubated overnight at 37° C. A single colony was used to inoculate 50 mL of LB, containing 25 μg/mL kanamycin, and the culture was shaken overnight at 37° C. From the overnight culture, 10 mL were transferred to 4×1 L LB medium containing 25 μg/mL kanamycin. The cultures were grown at 37° C. until the optical density (OD600 nm) reached 0.6-0.8, at which point protein production was induced with IPTG (0.5 mM) and ZnC12 (100 μM). The temperature was reduced to 20° C., and the cells were shaken for an additional 18 h. The cultures were harvested by centrifugation (8K×g) for 10 min at 4° C. […] The sample was loaded onto the column, and proteins were eluted with a linear gradient 0-500 mM NaCl with buffer B. Fractions containing VIM2, determined by SDS-PAGE, were pooled and concentrated to 2-3 mL in an Amicon ultraconcentrator equipped YM-10 membrane. […]
The relative change in absorbance was evaluated as percentage inhibition and the IC50 was determined by fitting the data to a sigmoidal dose-response curve. […]

[2] = test system: E. coli; assay: Cell viability assay, wild type E. coli growth; type: cell-based
Procedure: (§1) The cells were cultured on 0.8 g/100 ml nutrient agar plate at pH 7.0 and 37° C. The bacterial growth medium was diluted in nutrient broth (NB) to a concentration absorbance of 1.5 at OD600 nm and incubated overnight in 10 ml capped culture tubes with shaking. An overnight culture of the bacterial strain was sub-cultured to an optical density of 0.06 at OD600 nm into the NB medium and was then seeded at max 200 μl into the wells of a 96 well microtiter plate. Samples were then incubated at 37° C. and shaken at 200 rpm for 18 h.

[3] = test system: VIM2 expressing E. coli; type: cell-based
Procedure: as §1

Compound: On1ccccc1=S [Compound 2b, 1-Hydroxypyridine-2-thione]
- fold loss of Ki relative to compound 3 [1]: 20 fold
- Ligand efficiency (LE) ([1]; LE = −1.38 log (Ki)/N, N = number of heavy atoms): 1.15
- relative percentage growth compared to untreated cells ([2]; Amox(+), 50 μM amoxicillin): 1.9%
- relative percentage growth compared to untreated cells ([2]; Amox(−)): 5.3%
- relative percentage growth compared to untreated cells ([3]; Amox(+), 50 μM amoxicillin): 2.1%
- relative percentage growth compared to untreated cells ([3]; Amox(−)): 11%
